Assay: Fe retained in sedimented fraction of suspended salt (AES/ICP)
Conditions: pellet of the pH 2 suspension dissolved in 15 g concentrated chloric acid
Procedure: The prepared FePA as described in Example 3 was suspended either at pH 2 or at pH 5,5 in a concentration of 35.8 g per liter. After sedimentation, the supernatant fraction of both suspensions was analysed by AES/ICP.
Subsequently, the suspension of pH=2 was centrifuged 10 minutes at 6000 rpm at room temperature. The pellet was dissolved in 15 g concentrated […] and the solution was analyzed by AES/ICP.
This procedure was repeated with iron phosphate. This salt was prepared in the same way as the preparation of the essential cation phytates: the cation was dissolved as its sulfate, and subsequently precipitated with a basic solution of sodium phosphate. The precipitate was collected and washed.

Substance: Iron-phytate [Fe-phytate]
- Fe retrieved in the soluble fraction: essentially all
